Experimental data taken from patent US20040152672A1, “Indole compounds useful for the treatment of cancer” (priority 2000, published 2004).
Read-outs that look alike come from different tables or passages of the source.

Tested on: Primary CLL cells
Assay: 3 day co-treatment of primary CLL cells with alkylating agents and R(−)-etodolac, MTT viability
Conditions: read-out: IC50, 3 Day Co-Treatment, alkylating agent alone

Structure (SMILES): NP(=O)(O)N(CCCl)CCCl
- IC50 (CLL sample EGF): 5500 nM
- IC50 (CLL sample GF): 1900 nM
- IC50 (CLL sample MAR): 800 nM
- IC50 (CLL sample MAS): 600 nM
- IC50 (CLL sample MS): 1300 nM
